Test results from PubChem BioAssay AID1861 (The Scripps Research Institute Molecular Screening Center, 2009).
Only a part is listed here, and it is no random draw. Some tests of the compounds listed are not included; inactive here does not mean inactive elsewhere. The source made the active and inactive calls. Cut-off read from the data, not from the text of the source: active = inhibition above about 16% (passing the limit was not always enough); inactive = the rest.

Amino acid sequences for entries named in this document (tags omitted).
UniProt P48145, whole entry: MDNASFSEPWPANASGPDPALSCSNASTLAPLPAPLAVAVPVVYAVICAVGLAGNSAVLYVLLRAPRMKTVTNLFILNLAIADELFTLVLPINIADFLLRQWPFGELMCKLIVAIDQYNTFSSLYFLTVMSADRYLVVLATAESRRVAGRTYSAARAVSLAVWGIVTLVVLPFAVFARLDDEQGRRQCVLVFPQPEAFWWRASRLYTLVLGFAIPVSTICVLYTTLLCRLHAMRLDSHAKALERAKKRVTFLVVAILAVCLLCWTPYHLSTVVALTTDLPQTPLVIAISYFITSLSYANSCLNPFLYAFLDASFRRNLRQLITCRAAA

What follows are compounds tested against Neuropeptides B/W receptor type 1 (Homo sapiens) (UniProt P48145) (assay: blockers of human neuropeptide B/W receptor 1 – cell-based, fluorescence, single concentration, primary screen (AID 1861;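 note: cells stimulated with the agonist NPW; 0% = agonist with vehicle and 100% = vehicle without agonist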)). Conditions: GPR7-expressing cells, fluorescence antagonist assay; at 4.4 µM; hits give high values.
In the case of `O=C(NCC1(N2CCCCC2)CCCCC1)c1cc(F)c(F)cc1Cl`, the inhibition is reported as inactive: -9.24%. `C=CCN1CCN(CCOC(=O)C(O)(c2ccccc2)c2ccccc2)CC1` was tested, and the inhibition was inactive: -4.72%. For `COc1ccc(C(=O)NCC2(N(C)C)CCCCC2)cc1`, the inhibition was inactive: -7.28%. With `O=C(NCC1(N2CCCCC2)CCCCC1)c1cccc(Br)c1` the inhibition was inactive: 0.52%. In the case of `CCN1CCCC(OC(=O)C2(O)c3ccccc3C=Cc3ccccc32)C1` (centres undefined), the inhibition is reported as inactive: 2.8%. With `Cc1cc(C(=O)NCC2(N3CCCCC3)CCCCC2)ccc1[N+](=O)[O-]` the inhibition was inactive: -10.3%. For `CN(C)c1ccc(C(=O)NCC2(N(C)C)CCCCC2)cc1`, the inhibition was inactive: -13.4%. In the case of `CN(C)C1CCCC1OC(=O)C(O)(c1ccccc1)c1ccccc1` (centres undefined), the inhibition is reported as inactive: -13.5%. With `Cc1ccccc1C(=O)NCC1(N2CCCCC2)CCCCC1` the inhibition was inactive: 5.74%. In the case of `COc1cc(SC)ccc1C(=O)NCC1(N(C)C)CCCCC1`, the inhibition is reported as inactive: 3.04%. `CCN(CC)CC(C)C(C)OC(=O)C(O)(c1ccccc1)c1ccccc1` (centres undefined) was tested, and the inhibition was inactive: -8.13%. `CC(C)N1C(=O)CC2(CCN(CCOC(=O)C(O)(c3ccccc3)c3ccccc3)CC2)C1=O` was tested, and the inhibition was inactive: -7.61%. For `Cc1ccc(C(=O)NCC2(N3CCCCC3)CCCCC2)cc1`, the inhibition was inactive: -2.74%. For `O=C(NCC1(N2CCCCC2)CCCCC1)c1cc([N+](=O)[O-])ccc1Cl`, the inhibition was inactive: 0.56%. For `CN1[C@@H]2CC[C@H]1CC(OC(=O)C(O)(c1ccccc1)c1ccccc1)C2` (some centres undefined), the inhibition was inactive: 8.66%. `COc1ccc(Br)c(C(=O)NCC2(N3CCCCC3)CCCCC2)c1` was tested, and the inhibition was inactive: 3.48%. `CC(C)Oc1ccc(C(=O)NCC2(N(C)C)CCCCC2)cc1` was tested, and the inhibition was inactive: 0.37%. For `CN(C)c1cccc(C(=O)NCC2(N(C)C)CCCCC2)c1`, the inhibition was inactive: -2.02%. `O=C(OC1CN2CCC1CC2)C(CO)(c1ccccc1)c1ccccc1` (centres undefined) was tested, and the inhibition was inactive: 1.08%. `COc1ccc(Cl)cc1C(=O)NCC1(N(C)C)CCCCC1` was tested, and the inhibition was inactive: -1.54%. For `COc1cccc(C(=O)NCC2(N3CCCCC3)CCCCC2)c1`, the inhibition was inactive: -8.57%. `O=C(NCC1(N2CCCCC2)CCCCC1)c1cccc(Cl)c1` was tested, and the inhibition was inactive: 5.09%. For `CN(C)C1(CNC(=O)c2ccc(Br)cc2)CCCCC1`, the inhibition was inactive: -11.5%. With `COc1cc(C(=O)NCC2(N(C)C)CCCCC2)c([N+](=O)[O-])cc1OC` the inhibition was inactive: 11.3%.
